## Measured affinities in a library of Ab-14 heavy chain variants

Values reported by Li et al. 2023, doi:10.1038/s41467-023-39022-2 (FLAb copy).

Target: peptide PDVDLGDISGINAS, taken from heptad repeat 2 (HR2) of SARS-CoV-2 spike.

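Designed CDR sequences, proposed from the first random library and measured here. Group labels follow the data file (Ctrl: baseline library sampled from a position-specific scoring matrix, with some repeated check sequences; En: ensemble of fine-tuned language models; HC: hill climbing; Gen: genetic algorithm; Gibbs: Gibbs sampling; a sequence that several methods proposed may carry one label only). In AlphaSeq, yeast of one mating type display the scFv and yeast of the other type display the target. Mating (16 h, 30 °C) was followed by selection of diploids and sequencing of their barcodes. A regression on co-assayed BCL2-family reference pairs converts the normalised counts of each replicate to an apparent Kd. The assay was run in six technical replicates.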

Parent: Ab-14, a human scFv built as VH, the linker GGGGSGGGGSGGGGS, VL. Only the CDRs of the heavy chain vary.
VH: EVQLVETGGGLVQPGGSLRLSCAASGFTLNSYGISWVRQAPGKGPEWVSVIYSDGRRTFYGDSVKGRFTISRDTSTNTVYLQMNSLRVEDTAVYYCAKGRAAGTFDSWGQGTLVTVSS
VL: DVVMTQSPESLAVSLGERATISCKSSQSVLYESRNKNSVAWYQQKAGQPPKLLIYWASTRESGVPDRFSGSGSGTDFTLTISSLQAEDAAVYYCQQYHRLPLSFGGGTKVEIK

Variants are written as CDR1, CDR2 and CDR3 of the heavy chain (limits as in the source). Parent: GFTLNSYGIS, VIYSDGRRTFYGDSVK, GRAAGTFDS.
This list holds designs with more than six substitutions.
Each Kd is an estimate from the mating assay, the geometric mean of the replicates in which the pair was seen; lower is stronger.
Where no diploid with the target was found in any replicate, the entry reads "nd": below detection, most likely a poor binder, though not proof of it.
Of ten entries with the parent sequence, four were seen in most replicates (averages 2.2 nM to 240 nM), three in one and three in none, so single entries are noisy.
The authors averaged sequences with at least three values out of six and counted those with two or fewer as poor binders.
As a blank, each scFv also met three strains without target: over all heavy chain designs, 1% of these pairings were detected, typically at 120 nM and seldom below 7.0 nM.
A sequence measured in both rounds can read differently, since the two assays cover different ranges.

With EFDLNNYGIS, VIYADGLRTQYETKVK, GDVAGTFDS [En_Gibbs] the result was 6.8 nM (6 of 6 replicates).
With GFDLNEYGIS, VIYADGVRTVYADSVK, GQNAGTFDV [En_Gen] the result was 140 nM (4 of 6 replicates).
With GFDLEEMGIH, VIYADGIRTAVSNDVK, GNVAGTGDV [En_Gibbs] the result was 2.3 nM (6 of 6 replicates).
With GFDINEYGIS, VIYADGQREAYAESVK, GFNQTINLV [En_Gibbs] the result was nd (0 of 6 replicates).
With GFDLNEYGIS, VIYADGMRTFYSDSVK, GNVAGTFDQ [En_Gen] the result was 150 pM (6 of 6 replicates).
With GFDINEYGVS, VIYADGMRTYYDDKVK, GSNGSMLLD [En_Gibbs] the result was nd (0 of 6 replicates).
With GFDLDEYGIS, VIYADGKRTAYADDVK, GNTAGTFDV [En_Gen] the result was 220 pM (6 of 6 replicates).
With GFQLDEYGIS, VIYADGIRQYYAQKVK, GYNSFDMTV [En_Gibbs] the result was nd (0 of 6 replicates).
With GFDLNEYGIS, VIYADGMRTFYADDVK, GENAGTFDI [En_Gen] the result was 310 pM (6 of 6 replicates).
With GFEIQDYGIS, VIYADGLRTAYSDKFK, GIIAGTFNV [En_Gibbs] the result was 1.1 nM (6 of 6 replicates).
With GFDLNEYGIS, VIYADGRRTFYADSVK, GTVAGTFDV [En_HC] the result was 320 pM (6 of 6 replicates).
With GFNLNEYGIS, VIYADGRRTFYADSVK, GENAGTFDF [En_HC] the result was 230 pM (6 of 6 replicates).
With GFELDEYGIS, VIYADGKRKAYDNAVK, GFTGGVKLD [En_Gibbs] the result was nd (0 of 6 replicates).
With GNDLNEYGIS, VIYADGLRVMYANNVK, GQLDVVVLV [En_Gibbs] the result was nd (0 of 6 replicates).
With GEDLQEYGIS, VIYADGFRQSYSDKVK, GQHAGFLVK [En_Gibbs] the result was 24 nM (4 of 6 replicates).
With GFDLNEYGIS, VIYADGRRTFYADSVK, GEAGGTFDT [En_HC] the result was 520 pM (6 of 6 replicates).
With GFPIDEYGIS, VIYADGRRTVYSDNVK, GNYGASIII [En_Gibbs] the result was nd (0 of 6 replicates).
With GFDLNEYGIS, VIYADGMRTAYADNVK, GQVAGTFDQ [En_Gen] the result was 670 pM (6 of 6 replicates).
With GFDLNEYGIS, VIYADGMRTAYSDSVK, GNQAGTFDQ [En_Gen] the result was 3.0 nM (6 of 6 replicates).
With GFDLNEYGIS, VIYADGKRTAYVDSVK, GQVAGTFDV [En_Gen] the result was 300 pM (6 of 6 replicates).
With GFDLNEYGIS, VIYADGVRTFYTDSVK, GNAAGTFDV [En_HC] the result was 2.1 nM (6 of 6 replicates).
With GMDLSEYGIS, VIYADGMRTYASDSVK, GDMGGNLLY [En_Gibbs] the result was nd (0 of 6 replicates).
With GFNLNEYGIS, VIYADGKRTFYADSVK, GEIAGTFDF [En_HC] the result was 500 pM (6 of 6 replicates).
With GFDLNEYGIS, VIYADGKRTAYIDSVK, GNQAGTFDL [En_Gen] the result was 560 pM (6 of 6 replicates).
With GFQLDEYGIS, VIYADGKRTAYAANFK, GNGLVLYEG [En_Gibbs] the result was 840 nM (1 of 6 replicates).
With GFGLMDYGIS, VIYADGSRRSYANSFK, GAHAGTFDF [En_Gibbs] the result was 22 nM (6 of 6 replicates).
With GFDLNEYGIS, VIYADGKRTSYDDSVK, GQLAGTFDQ [En_HC] the result was 1.4 nM (6 of 6 replicates).
With GNVLDEYGIS, VIYADGVRTAYAQRVK, GETGDNAMT [En_Gibbs] the result was nd (0 of 6 replicates).
With GFDLNEYGIS, VIYADGVRTAYADNVK, GNVAGTFDV [En_Gen] the result was 340 pM (6 of 6 replicates).
With GFDLDEYGIS, VIYADGKRTAYSDSVK, GEVAGTFDI [En_Gen] the result was 1.1 nM (6 of 6 replicates).
With GFDLNEYGIS, VIYADGMRKAYADDVK, GENAGTFDI [En_Gen] the result was 460 pM (6 of 6 replicates).
With GFDLNEYGIS, VIYADGRRTAYADKVK, GNVAGTFDI [En_Gen] the result was 170 pM (6 of 6 replicates).
With GFDLNEYGIS, VIYADGMRTAYTDSVK, GNEAGTFDA [En_HC] the result was 2.1 nM (6 of 6 replicates).
With GFDLNEYGIS, VIYADGMRTAYIDSVK, GNVAGTFDL [En_Gen] the result was 300 pM (6 of 6 replicates).
With GFDLNEYGIS, VIYADGRRTSYIDSVK, GNVAGTFDQ [En_HC] the result was 300 pM (6 of 6 replicates).
With GFDLNEYGIS, VIYADGRRTAYIDSVK, GNQAGTFDV [En_Gen] the result was 96 pM (6 of 6 replicates).
With GFTLDEYGIS, VIYADGRRTFYADSVK, GNVAGTFDQ [En_HC] the result was 250 pM (6 of 6 replicates).
With GFDLNEYGIS, VIYADGVRKFYADSVK, GNVAGTFDV [En_Gen] the result was 210 pM (6 of 6 replicates).
With GFDLNEYGIS, VIYADGQRTAYADDVK, GNNAGTFDM [En_Gen] the result was 750 pM (6 of 6 replicates).
With GFDLEEYGIS, VIYADGMRTAYADSVK, GEVAGTFDV [En_Gen] the result was 520 pM (6 of 6 replicates).
With GFNLDEYGIS, VIYADGIRSHYVDDVK, GKHGGGKLD [En_Gibbs] the result was nd (0 of 6 replicates).
With GFDLNEYGIS, VIYADGLRTSYADSVK, GQLAGTFDI [En_HC] the result was 180 pM (6 of 6 replicates).
With GFDLNEYGIS, VIYADGVRTAYADSVK, GENAGTFDA [En_Gen] the result was 14 nM (6 of 6 replicates).
With GFDLDEYGIS, VIYADGMRNAYTADVK, GGKSEDFFM [En_Gibbs] the result was nd (0 of 6 replicates).
With GFSLDEYGIS, VIYADGIRQHYSDQVK, GVKNGNVIM [En_Gibbs] the result was nd (0 of 6 replicates).
With GFDIDEMGIS, VIYADGQRKAYTENVK, GNSMGMTLA [En_Gibbs] the result was nd (0 of 6 replicates).
With GQQLNSFGYS, VIYSDGRRTAYGDSVK, GEEALTFDS [Ctrl] the result was nd (0 of 6 replicates).
With GFDLEDYGIS, VIYADGRRTAYSDSVK, GEAAGTFDV [En_HC] the result was 1.2 µM (1 of 6 replicates).
With GFDLDEYGIS, VIYADGRRTFYADSVK, GSHAGTFDT [En_HC] the result was 270 pM (6 of 6 replicates).
With DFNLNEYGIS, VIYADGQRASYLDKVK, GQISGTFDT [En_Gibbs] the result was nd (0 of 6 replicates).
With GKDIEEYGIS, VIYADGMRQAYLDSVK, GNVVGSGSF [En_Gibbs] the result was nd (0 of 6 replicates).
With GFDLDEYGIS, VIYADGKRTYYADSVK, GNVAGTFDI [En_Gen] the result was 89 pM (6 of 6 replicates).

Excerpt, the first 4 entries:

CDR-H1,CDR-H2,CDR-H3,group,Kd (apparent),detected
EFDLNNYGIS,VIYADGLRTQYETKVK,GDVAGTFDS,En_Gibbs,6.8 nM,6 of 6
GFDLNEYGIS,VIYADGVRTVYADSVK,GQNAGTFDV,En_Gen,140 nM,4 of 6
GFDLEEMGIH,VIYADGIRTAVSNDVK,GNVAGTGDV,En_Gibbs,2.3 nM,6 of 6
GFDINEYGIS,VIYADGQREAYAESVK,GFNQTINLV,En_Gibbs,nd,0 of 6